Test results as given in US20050266515A1, “Glyceraldehyde 3-phosphate dehydrogenase-S (GAPDHS), a glycolytic anzyme expressed only in male germ cells, is a target for male contraception” (The University of North Carolina at Chapel Hill, priority 2002, published 2005).

Test system: truncated form of human GAPDHS
Experiment: Inhibition of dehydrogenase activity of recombinant truncated GAPDHS (NADH accumulation at 340 nm);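 further: recombinant enzyme (1 µg) in glycine–phosphate–EDTA buffer pH 8.9, inhibitors tested from 1 µM to 3 mM, activity relative to DMSO-only controls taken as 100%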
Format: biochemical
Settings: comparison of IC50 values of Tables 7, 9 and 11
Description: In subsequent studies to test inhibitors identified in computer docking studies, recombinant mouse Gapdh and the truncated form of Gapdhs (tGapdhs, amino acids 106-438) were expressed in DS112 gapA-deficient E. coli strain K-12 (available from the Yale University E. coli Genetics Stock Center, New Haven, Conn., United States of America). The truncated Gapdhs lacks the proline-rich N-terminus, but contains all the amino acids required for enzyme activity. The recombinant proteins were purified and activities were determined with a standard enzyme assay (Schmalhausen et al., 1997). Using this assay, the dehydrogenase activity of Gapdh and tGapdhs was monitored at 340 nm by measuring the accumulation of NADH.
The reaction mixture (200 μl) contained 50 mM glycine, 50 mM potassium phosphate, 5 mM EDTA (pH 8.9), 1 μg of recombinant enzyme (Gapdh or tGapdhs), 0.5 mM NAD, and 0.5 mM glyceraldehyde-3-phosphate. Activities of Gapdh and tGapdh were compared in the presence of various concentrations of inhibitors. Compounds identified as potential inhibitors in modeling studies as described herein were obtained from Ryan Scientific (Mt. Pleasant, S.C., United States of America). Stocks for each compound were prepared by dissolving 5 mg in 50 μl of DMSO. These stocks were divided into 10 μl aliquots and frozen at −20° C. […]

## 4-Amino-N-(4-methoxy-phenyl)-3-nitro-benzenesulfonamide-cyclohexyl-urea [Compound T0506_9350]
  selective inhibition: Gapdhs compared to Gapdh: greater inhibition of Gapdhs than Gapdh
